Assays:
[1] = system: 17α-estradiol (17-epiestradiol); assay: purified protein, by the assay type; details: pH 7.4
17β-estradiol = assay: purified protein, by the assay type; details: pH 7.4
UGT2B15 = target: T1, UGT2B15 (Homo sapiens, UniProt P54855); details: No BSA; 17α-estradiol: 3-glucuronide formation
T1 sequence (P54855 24-530): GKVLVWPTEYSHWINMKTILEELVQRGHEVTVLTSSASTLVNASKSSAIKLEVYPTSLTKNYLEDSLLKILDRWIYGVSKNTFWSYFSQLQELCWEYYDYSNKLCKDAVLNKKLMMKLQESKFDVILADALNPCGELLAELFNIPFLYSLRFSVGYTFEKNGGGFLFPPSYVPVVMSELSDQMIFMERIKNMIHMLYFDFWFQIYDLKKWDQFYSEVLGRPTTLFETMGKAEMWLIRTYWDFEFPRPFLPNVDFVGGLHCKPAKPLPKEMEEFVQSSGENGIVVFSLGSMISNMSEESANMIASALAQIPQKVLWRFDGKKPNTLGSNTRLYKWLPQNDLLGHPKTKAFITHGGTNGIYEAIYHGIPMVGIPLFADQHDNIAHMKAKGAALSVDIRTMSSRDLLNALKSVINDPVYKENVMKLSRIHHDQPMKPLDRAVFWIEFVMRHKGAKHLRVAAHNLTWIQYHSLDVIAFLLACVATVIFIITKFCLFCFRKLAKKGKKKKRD

Row | K m or S 50 ± S.E. (UGT2B15) | Compound | K0.5 [1] | Vmax [1] | K0.5 (17β-estradiol) | Vmax (17β-estradiol)
1 |  | UGT1A10 (Homo sapiens) | 25.7±6.3(12.8–39.1) uM | 7e-05 µmol/min/mg | 4.58±0.61(3.30–5.85) uM | 0.0025 µmol/min/mg
2 |  | UGT2B4 (Homo sapiens) | 4.51±0.68(3.09–5.93) uM | 5.3e-05 µmol/min/mg |  | 
3 |  | UGT1A1 (Homo sapiens) | 4.57±0.48(3.59–5.56) uM | 1.9e-05 µmol/min/mg |  | 
4 |  | UGT1A8 (Homo sapiens) |  |  | 8.16±0.55(7.03–9.30) uM | 2e-05 µmol/min/mg
5 | 10.2±1.0(8.0–12.3) µM | C[C@]12CC[C@@H]3c4ccc(O)cc4CC[C@H]3[C@@H]1CC[C@H]2O [17α-Estradiol, 17α-estradiol] |  |  |  | 
6 |  | UGT2B17 (Homo sapiens) |  |  | 6.01±0.26(5.47–6.54) uM | 1.3e-05 µmol/min/mg
7 |  | UGT2B7 (Homo sapiens) | 0.128±0.015(0.098–0.158) uM | 1.4e-05 µmol/min/mg | 2.56±0.29(1.96–3.16) uM | 6.7e-06 µmol/min/mg
